The experiment can be described thus: Selectivity index, ratio of IC50 for rat liver DHFR to Toxoplasma gondii DHFR.

Ratio IC50 data for 2 compounds are collected here from ChEMBL document CHEMBL1152608, “Design, synthesis, and X-ray crystal structures of 2,4-diaminofuro[2,3-d]pyrimidines as multireceptor tyrosine kinase and dihydrofolate reductase inhibitors” (Bioorg Med Chem, 2009).

The structures appear in SMILES notation.

On to `COc1ccccc1/C(C)=C\c1coc2nc(N)nc(N)c12`, for which the Ratio IC50 was determined as 2.58.

In the case of `COc1ccccc1/C(C)=C/c1coc2nc(N)nc(N)c12`, the Ratio IC50 turned out to be 4.62.
